# Permeability data for macrocyclic peptides

Collected by the curators of CycPeptMPDB (Li et al. 2023) from Townsend et al. 2020, doi:10.26434/chemrxiv.13335941.v1.

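Lipid, pH, incubation time, direction and concentration are not recorded in the data file. The list need not hold all peptides of the study. Entries at the database's floor value (log10 P of -10) are not listed.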

PAMPA is the parallel artificial membrane permeability assay, which has no cells and reads passive diffusion.
Permeability is in 10^-6 cm/s, converted from the database's log10 values; higher is more permeable.

CCCN1CC(=O)N(Cc2ccccc2)CC(=O)N[C@@H](Cc2ccccc2)CC(=O)N2CCC[C@H]2C(=O)N[C@H](CC(C)C)C(=O)N[C@@H](Cc2ccccc2)C1=O has PAMPA 1.4 × 10^-6 cm/s.
CC(C)C[C@@H]1NC(=O)[C@@H]2CCCN2C(=O)C[C@H](Cc2ccccc2)NC(=O)CN(Cc2ccccc2)C(=O)[C@H](C)N(C)C(=O)[C@H](Cc2ccccc2)NC1=O has PAMPA 0.78 × 10^-6 cm/s.
O=C1CN(Cc2ccccc2)C(=O)[C@H]2CCCN2C(=O)CN(Cc2ccccc2)C(=O)CN(Cc2ccccc2)C(=O)C[C@H](Cc2ccccc2)NC(=O)[C@H](Cc2ccccc2)N1 has PAMPA 1.4 × 10^-6 cm/s.
CCCN1CC(=O)N[C@@H](CC(C)C)C(=O)N(C)[C@@H](CC(C)C)C(=O)N2CCC[C@@H]2C(=O)N(C)[C@H](CC(C)C)C(=O)N[C@@H](Cc2ccccc2)C1=O has PAMPA 14 × 10^-6 cm/s.
CC(C)C[C@H]1C(=O)N(Cc2ccccc2)CC(=O)N2CCC[C@@H]2C(=O)N(Cc2ccccc2)CC(=O)N[C@@H](Cc2ccccc2)C(=O)N2CCC[C@@H]2C(=O)N[C@@H](Cc2ccccc2)CC(=O)N1C has PAMPA 1.3 × 10^-6 cm/s.
CC(C)C[C@@H]1NC(=O)[C@@H]2CCCN2C(=O)CN(Cc2ccccc2)C(=O)[C@H](CC(C)C)N(C)C(=O)C[C@H](Cc2ccccc2)NC(=O)[C@H](Cc2ccccc2)NC1=O has PAMPA 2 × 10^-6 cm/s.
CC(C)C[C@@H]1NC(=O)[C@H]2CCCN2C(=O)CN(Cc2ccccc2)C(=O)CN(Cc2ccccc2)C(=O)C[C@H](Cc2ccccc2)NC(=O)[C@@H]2CCCN2C(=O)[C@H](Cc2ccccc2)NC1=O has PAMPA 0.93 × 10^-6 cm/s.
CC(C)C[C@H]1NC(=O)[C@H]2CCCN2C(=O)[C@@H](CC(C)C)NC(=O)CN(Cc2ccccc2)C(=O)[C@H](C)N(C)C(=O)[C@H]2CCCN2C(=O)[C@H](Cc2ccccc2)NC1=O has PAMPA 1.4 × 10^-6 cm/s.
CCCN1CC(=O)N[C@H](CC(C)C)C(=O)N[C@@H](Cc2ccccc2)CC(=O)N2CCC[C@H]2C(=O)N(Cc2ccccc2)CC(=O)N[C@@H](Cc2ccccc2)C1=O has PAMPA 0.85 × 10^-6 cm/s.
CCCN1CC(=O)N(C)[C@H](CC(C)C)C(=O)N[C@@H](Cc2ccccc2)CC(=O)N2CCC[C@H]2C(=O)N(Cc2ccccc2)CC(=O)N[C@@H](Cc2ccccc2)C(=O)N2CCC[C@H]2C1=O has PAMPA 1.8 × 10^-6 cm/s.
CC(C)C[C@H]1C(=O)N[C@@H](Cc2ccccc2)CC(=O)N2CCC[C@H]2C(=O)N(C)[C@@H](CC(C)C)C(=O)N[C@@H](Cc2ccccc2)C(=O)N[C@@H](Cc2ccccc2)CC(=O)N1C has PAMPA 4.8 × 10^-6 cm/s.
CC(C)C[C@@H]1NC(=O)[C@H]2CCCN2C(=O)[C@@H](CC(C)C)N(C)C(=O)CN(Cc2ccccc2)C(=O)C[C@H](Cc2ccccc2)NC(=O)[C@H]2CCCN2C(=O)[C@H](Cc2ccccc2)NC1=O has PAMPA 0.35 × 10^-6 cm/s.
O=C1CN(Cc2ccccc2)C(=O)[C@H]2CCCN2C(=O)CN(Cc2ccccc2)C(=O)CN(Cc2ccccc2)C(=O)C[C@H](Cc2ccccc2)NC(=O)[C@H]2CCCN2C(=O)[C@H](Cc2ccccc2)N1 has PAMPA 0.22 × 10^-6 cm/s.
CC(C)C[C@@H]1NC(=O)[C@H]2CCCN2C(=O)CN(Cc2ccccc2)C(=O)CN(Cc2ccccc2)C(=O)C[C@H](Cc2ccccc2)NC(=O)[C@H]2CCCN2C(=O)[C@H](Cc2ccccc2)NC1=O has PAMPA 0.16 × 10^-6 cm/s.
CC(C)C[C@H]1NC(=O)[C@@H]2CCCN2C(=O)CN(Cc2ccccc2)C(=O)[C@H](CC(C)C)N(C)C(=O)C[C@H](Cc2ccccc2)NC(=O)[C@H](Cc2ccccc2)NC1=O has PAMPA 1.2 × 10^-6 cm/s.
CCCN1CC(=O)N(Cc2ccccc2)CC(=O)N(C)[C@H](CC(C)C)C(=O)N2CCC[C@@H]2C(=O)N(C)[C@H](CC(C)C)C(=O)N[C@@H](Cc2ccccc2)C1=O has PAMPA 2.9 × 10^-6 cm/s.
CCCN1CC(=O)N(Cc2ccccc2)CC(=O)N[C@@H](Cc2ccccc2)CC(=O)N2CCC[C@H]2C(=O)N[C@H](CC(C)C)C(=O)N[C@@H](Cc2ccccc2)C(=O)N2CCC[C@@H]2C1=O has PAMPA 0.76 × 10^-6 cm/s.
CC(C)C[C@@H]1NC(=O)[C@H]2CCCN2C(=O)CN(Cc2ccccc2)C(=O)[C@H](CC(C)C)N(C)C(=O)C[C@H](Cc2ccccc2)NC(=O)[C@H](Cc2ccccc2)NC1=O has PAMPA 3.3 × 10^-6 cm/s.
CC(C)C[C@H]1C(=O)N[C@@H](Cc2ccccc2)C(=O)N2CCC[C@H]2C(=O)N[C@@H](C)C(=O)N(Cc2ccccc2)CC(=O)N(Cc2ccccc2)CC(=O)N2CCC[C@H]2C(=O)N1C has PAMPA 0.95 × 10^-6 cm/s.
CC(C)C[C@H]1C(=O)N[C@@H](Cc2ccccc2)CC(=O)N2CCC[C@@H]2C(=O)N(Cc2ccccc2)CC(=O)N[C@@H](Cc2ccccc2)C(=O)N(C)[C@@H](C)C(=O)N1C has PAMPA 3.5 × 10^-6 cm/s.
C[C@H]1C(=O)N(Cc2ccccc2)CC(=O)N[C@@H](Cc2ccccc2)CC(=O)N2CCC[C@H]2C(=O)N(Cc2ccccc2)CC(=O)N[C@@H](Cc2ccccc2)C(=O)N2CCC[C@@H]2C(=O)N1C has PAMPA 0.85 × 10^-6 cm/s.
CCCN1CC(=O)N(C)[C@H](CC(C)C)C(=O)N[C@@H](Cc2ccccc2)CC(=O)N2CCC[C@H]2C(=O)N[C@@H](CC(C)C)C(=O)N[C@@H](Cc2ccccc2)C1=O has PAMPA 2.8 × 10^-6 cm/s.

Again, the 3 entries with the lowest PAMPA:

For CC(C)C[C@@H]1NC(=O)[C@H]2CCCN2C(=O)CN(Cc2ccccc2)C(=O)CN(Cc2ccccc2)C(=O)C[C@H](Cc2ccccc2)NC(=O)[C@H]2CCCN2C(=O)[C@H](Cc2ccccc2)NC1=O the data give PAMPA 0.16 × 10^-6 cm/s.
For O=C1CN(Cc2ccccc2)C(=O)[C@H]2CCCN2C(=O)CN(Cc2ccccc2)C(=O)CN(Cc2ccccc2)C(=O)C[C@H](Cc2ccccc2)NC(=O)[C@H]2CCCN2C(=O)[C@H](Cc2ccccc2)N1 the data give PAMPA 0.22 × 10^-6 cm/s.
For CC(C)C[C@@H]1NC(=O)[C@H]2CCCN2C(=O)[C@@H](CC(C)C)N(C)C(=O)CN(Cc2ccccc2)C(=O)C[C@H](Cc2ccccc2)NC(=O)[C@H]2CCCN2C(=O)[C@H](Cc2ccccc2)NC1=O the data give PAMPA 0.35 × 10^-6 cm/s.